Reference: patent US20170240632A1, “COMPOSITIONS AND METHODS FOR IDENTIFYING AND TREATING CACHEXIA OR PRE-CACHEXIA” (THE BROAD INSTITUTE INC., priority 2014, published 2017)

System: RAGE ligands
Experiment: Depletion of conditioned media by soluble RAGE receptor (FIG. 22)
Details: eluate reconstitutes cachexia activity

**Q.** With “soluble RAGE receptor: negative regulator of RAGE signaling that acts as a sink for RAGE ligands” as the substance, how does the “depletion of cachexia activity from conditioned media” value read?
**A.** Its value is “depletes conditioned media of cachexia activity”.
